By UniProt entry, the sequences of proteins in these tests, tags left out. Chains listed by the source or under a name are the forms on record and can include a tag or linker. Residues count along the entry.
UniProt Q09472, with tags, fused parts or gaps DEL1529-1560/M1652G limits assumed: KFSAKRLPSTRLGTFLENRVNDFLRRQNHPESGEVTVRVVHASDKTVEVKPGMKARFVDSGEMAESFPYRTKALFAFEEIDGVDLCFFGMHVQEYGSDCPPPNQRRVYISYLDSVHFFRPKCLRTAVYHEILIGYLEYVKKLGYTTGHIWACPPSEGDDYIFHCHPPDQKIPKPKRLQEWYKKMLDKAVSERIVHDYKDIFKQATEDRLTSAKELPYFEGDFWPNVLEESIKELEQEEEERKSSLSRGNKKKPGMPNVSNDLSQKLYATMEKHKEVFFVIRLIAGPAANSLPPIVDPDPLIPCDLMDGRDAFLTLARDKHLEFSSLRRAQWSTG
UniProt Q29495, whole entry: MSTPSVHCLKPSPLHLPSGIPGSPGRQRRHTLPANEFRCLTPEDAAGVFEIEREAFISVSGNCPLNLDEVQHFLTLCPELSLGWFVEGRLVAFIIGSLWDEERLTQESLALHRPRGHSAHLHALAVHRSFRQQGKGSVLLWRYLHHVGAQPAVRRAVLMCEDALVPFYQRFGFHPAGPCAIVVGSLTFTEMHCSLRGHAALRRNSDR
UniProt Q92831, 493-658 limits assumed: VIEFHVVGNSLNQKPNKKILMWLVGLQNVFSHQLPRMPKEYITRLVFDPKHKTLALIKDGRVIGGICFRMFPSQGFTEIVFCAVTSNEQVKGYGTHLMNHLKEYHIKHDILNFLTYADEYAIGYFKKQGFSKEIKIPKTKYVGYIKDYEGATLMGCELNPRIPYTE

According to patent publication US9005670B2, “Use of histone acetyltransferase inhibitors as novel anti-cancer therapies” (The Johns Hopkins University, priority 2010, dated 2015):

Tests used:
Type in all cases: biochemical
p300 HAT [1] = molecular target: T1, p300 HAT (Homo sapiens, UniProt Q09472, DEL1529-1560/M1652G); assay: coupled spectrophotometric p300 HAT assay; details: for Percent inhibition of acetyltransferase, p300: 10 μM compound; for % inhibition with 2x coupling enz: 0.2 units α-KGDH (two times); for % inhibition in initial screen: compounds at 100 μM
p300 HAT [2] = molecular target: T1, p300 HAT; assay: direct radioactive p300 HAT assay (14C-acetyl-CoA transfer to H4-15)
[3] = molecular target: AANAT (arylalkylamine N-acetyltransferase) (Ovis aries, UniProt Q29495); assay: AANAT coupled spectrophotometric assay; details: 10 μM compound
[4] = molecular target: PCAF (p300/CBP-associated factor) (Homo sapiens, UniProt Q92831); assay: PCAF coupled spectrophotometric assay; details: 10 μM compound

| SMILES | Percent inhibition of acetyltransferase, p300 (p300 HAT [1]) [%] | % inhibition with 2x coupling enz (p300 HAT [1]) [%] | % inhibition in initial screen (p300 HAT [1]) [%] | % inhibition at 25 uM in radioactive assay (p300 HAT [2]) [%] | Percent inhibition of acetyltransferase, AANAT [3] [%] | Percent inhibition of acetyltransferase, PCAF [4] [%] |
| --- | --- | --- | --- | --- | --- | --- |
| Cc1ccc(NC(=O)CN2C(=O)S/C(=C\c3ccc(-c4ccc(C(=O)O)c(Cl)c4)o3)C2=O)cc1 | 79 | 67.3 | 78.8 | 90.9 | 73 |  |
| O=C(O)c1ccc(O)c(/C=N/c2ccc3oc(-c4cccc(I)c4)nc3c2)c1 | 87 | 47.5 | 43.6 | 77.7 | <10 | >95 |
